{"source": "patent US6632449B2", "about": "“Compositions and kits comprising a defined boron compound and methods of their preparation” (The Procter & Gamble Co., priority 2001, dated 2003)", "conditions": "saturated aqueous solution acidified with hydrochloric acid, auto titrator; pH at inflection point"}
{"substance": "sodium borate", "values": [{"measurement": "pKa of the boron compound", "result": "about 9.2"}]}
